Measurements reported in ChEMBL document CHEMBL1122768.
Some compounds may have been tested in ways that are not shown here.

Test: Partition coefficient (logP)
Details: octanol/water

Compound: Cl.O=C1CCC2=C(CCN(CCc3ccccc3)C2)N1c1ccccc1
- logP: 2.68
